For five compounds, IC50 results are on record in patent publication US20260151375A1, “CDK2 INHIBITORS AND METHODS OF USING THE SAME” (Cedilla Therapeutics, Inc., priority 2022, published 2026).

A value given as a limit tells only on which side of the number the result lay.

For one test, the system named is Kuramochi cells. Briefly: IncuCyte Kuramochi Assay (cell proliferation). As to conditions: read-out: IncuCyte - Kuramochi RB-WT: IC50; Kuramochi cells labeled with mApple-H2B, 72 hours, cell count. The protocol:
IncuCyte® assay was used to measure the effect of disclosed compounds on cell proliferation. Fluorescent microscopy images of cells were taken immediately after compound treatment and 72 hours later. Image analysis software was used to obtain cell counts as a function of compound concentration. Kuramochi cells labeled with mApple-H2B were seeded on 384-well assay-ready plates. Plates were placed in an IncuCyte® (Sartorius) and scanned at 0 and 72 hours. IncuCyte® software was used to count the number of fluorescent nuclei in each well. The fold change in cell count from 0 to 72 hours in wells treated with increasing compounds concentrations (10 pts, ½ log dilution, 20 μM top concentration) was normalized to DMSO control wells. The normalized cell counts were fit with dose response curves and a […] was calculated.

The target in test [1] is T1, CDK2/Cyclin E1 (Homo sapiens, UniProt P24941). As to the kind of experiment: ADPGLO (CDK2/E1-37 C), ADP-Glo Luminescent Kinase Assay. As to conditions: read-out: ADPGLO (CDK2/E1-37C): IC50; 0.18 nM CDK2/Cyclin E1, 100 μM ATP, Histone H1, 37° C. The protocol: Inhibition of CDK2/Cyclin E1 activity by the presence of small molecules was evaluated using ADP-Glo Luminescent Kinase Assay (Promega). Activated CDK2/Cyclin E1 was incubated with its substrate Histone H1 (SignalChem H10-54N) in the kinase reaction buffer (100 μM ATP, 50 mM HEPES pH 7.5, 10 mM MgCl2, 1 mM EDTA, 2 mM DTT, 0.01% Brij35, 0.5 mg/mL BSA). Luminescence was recorded with an Envision plate reader (PerkinElmer).
Dose titrations of inhibitors in 100% DMSO were combined with 0.36 nM CDK2/Cyclin E1 in reaction buffer. The mixtures were incubated for 60 minutes at 37° C. before the addition of ATP and Histone H1 substrate to initiate the kinase reaction. The final conditions were 0.18 nM CDK2/Cyclin E1, 100 μM ATP, and 1.5 μM Histone H1. The reactions were incubated at 37° C. for 90 minutes before being stopped with the addition of ADP-Glo reagent. This mixture was incubated at room temperature for 60 minutes before Kinase Detection Solution is added to generate luminescence. The stopped reactions were analyzed on an Envision plate reader. The conversion ratios were normalized to yield % activity, plotted against compound concentration, and fit to a four-parameter equation to determine the IC50 for each compound.
A general note: ADP-Glo turns the ADP formed in a reaction into a luminescent signal.

Test [2] addresses T1, CDK2/Cyclin E1. Briefly: Caliper Assay (LabChip EZ Reader mobility shift assay), inhibition of CDK2/Cyclin E1 activity. As to conditions: read-out: Caliper Assay (CDK2/CCNE1): IC50; 2.5 nM CDK2/Cyclin E1(14-475), 100 μM ATP, 30 min preincubation. The protocol: Inhibition of CDK2/Cyclin E1 activity in the presence of compounds of the present disclosure was evaluated using a Caliper LabChip® EZ Reader mobility shift assay. In the assay, activated CDK2/Cyclin E1 catalyzes the phosphorylation of a fluorescently tagged peptide 5-FAM-QSPKKG-CONH2 (PerkinElmer, FL Peptide 18) which induces a difference in capillary electrophoresis mobility. The peptide substrate and product were measured, and the conversion ratio was used to determine the inhibition (as % activity and IC50 values) of CDK2/Cyclin E1. Reactions contained 50 mM HEPES pH 7.5, 10 mM MgCl2, 1 mM EDTA, 2 mM DTT, 0.01% Brij35, 0.5 mg/mL BSA, 0.1% DMSO, 2.5 nM CDK2/Cyclin E1(14-475), 100 μM ATP, and 1.5 μM fluorescent peptide substrate.
Dose titrations of inhibitors in 100% DMSO were combined with 3.25 nM CDK2/Cyclin E1(14-475) and 130 μM of ATP in reaction buffer. The mixtures were incubated for 30 minutes before the addition of fluorescent peptide substrate to initiate the kinase reaction. The final conditions were 2.5 nM CDK2/Cyclin E1(14-475), 100 μM ATP, and 1.5 μM fluorescent peptide. The reactions were stopped after 100 minutes with the addition of EDTA (6 mM final EDTA concentration). The stopped reactions were analyzed on a Caliper LabChip© EZ Reader II. The conversion ratios were normalized to yield % activity, plotted against compound concentration, and fit to a four-parameter equation to determine the IC50 for each compound.

`Cc1ncc(C(=O)N2CC(c3noc(C(C)n4ccc(C5CCOCC5)n4)n3)C3(C2)CN(C(=O)C2(C(F)(F)F)CC2)C3)nc1O` (centres unmarked): the IC50 in the test on Kuramochi cells and on CDK2/Cyclin E1 [1] was over 10 µM throughout.

Regarding `CC1(C)C[C@@H]1C(=O)N1CC2(CN(C(=O)c3cncs3)CC2c2ncc(Cc3ccc(Cl)c(C(F)(F)F)c3)o2)C1` (some centres unmarked), the results for the IC50 with Kuramochi cells and at CDK2/Cyclin E1 [2] were over 10 µM and 100 to 1000 nM, respectively.

With `Cc1cc(C(=O)O)n(C(C)c2nc(C3CN(C(=O)c4cncs4)CC34CN(C(=O)[C@H]3CC3(C)C)C4)no2)n1` (some centres unmarked), the IC50 in the test with Kuramochi cells is over 10 µM; on CDK2/Cyclin E1 [2], 1000 to 10000 nM.

As to `CC1(C)C[C@@H]1C(=O)N1CC2(CN(C(=O)c3cnn(Cc4ccc(C(=O)O)cc4)c3)CC2c2noc(Cn3ccc(C4CCCC4)n3)n2)C1` (some centres unmarked), the values for the IC50 with Kuramochi cells, at CDK2/Cyclin E1 [1] and on CDK2/Cyclin E1 [2] were over 10 µM, over 10 µM and 100 to 1000 nM, respectively.

For `O=C(c1cnc(O)cn1)N1CC(c2nnc(C(C(=O)N3CCC(c4nccs4)CC3)c3ccc(C4CCCCC4)cc3)o2)C2(C1)CN(C(=O)C1(C(F)(F)F)CC1)C2` (centres unmarked), the IC50 with Kuramochi cells was 5 to 10 µM; at CDK2/Cyclin E1 [1], under 0.5 µM.
